# Binding of CDR-mutated scFvs to a peptide of the spike HR2 region

Binding partner: SARS-CoV-2 spike HR2 peptide, sequence PDVDLGDISGINAS.

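AAYL50 was designed without a model: most single CDR substitutions and a random sample of double and triple ones. AlphaSeq pools MATa yeast showing the antibodies with MATalpha yeast showing the peptide. Pairs that bind mate more often; barcode pairs of the diploids are counted by sequencing. A regression on co-assayed BCL2-family reference pairs converts the normalised counts of each replicate to an apparent Kd. Mating was done three times.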

Each scFv is VH, a 15-residue (Gly4Ser)3 linker, VL, as in the parent Ab-14, and differs from it in the CDRs of the light chain only.
VH: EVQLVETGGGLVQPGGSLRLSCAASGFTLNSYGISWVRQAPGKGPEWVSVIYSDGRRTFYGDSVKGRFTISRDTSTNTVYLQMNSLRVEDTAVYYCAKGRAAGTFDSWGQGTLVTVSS
VL: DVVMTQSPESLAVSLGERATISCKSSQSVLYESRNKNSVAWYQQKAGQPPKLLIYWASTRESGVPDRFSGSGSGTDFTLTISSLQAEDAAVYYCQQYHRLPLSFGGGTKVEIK

The parent's light chain CDRs are KSSQSVLYESRNKNSVA, WASTRES, QQYHRLPLS; each variant's own CDRs replace them letter for letter. Scale: log10 of Kd in nM, estimated from mating counts; low values are strong binders. The mean shown is taken over the replicates in which the pair was detected. Where no diploid with the target was found in any replicate, the entry reads "nd": below detection, most likely a poor binder, though not proof of it. Three control strains display no target. For library AAYL50, 18% of the pairings with them gave a signal, with a median of 4.19 and one signal in twenty below 2.99, so weak values seen in few replicates may be background. The control count says in how many pairings with the empty strains this scFv gave a signal.

Variant KSEQSVLYESRNKNKVA | WASPRES | QQYHRLPLS gave 3.92 (1 of 3 replicates; controls 2 of 9).
Variant KSSQSVLYESRNKNDVR | WASTRES | QQYHRLYLS gave nd (0 of 3 replicates; controls 2 of 9).
Variant KSSQPVLYESRNKNSVA | WASTREQ | QQYARLPLS gave 0.42 (3 of 3 replicates; controls 2 of 9).
Variant KSSQSVLYESRNKNSVW | WASTRES | QQYRRLMLS gave 3.20 (1 of 3 replicates; controls 2 of 9).
Variant KSSESVLYESDNKNSVA | WASTRES | QWYHRLPLS gave 4.22 (3 of 3 replicates; controls 2 of 9).
Variant KSSQSVLYESDMKNSVA | WASTRES | QVYHRLPLS gave 3.11 (1 of 3 replicates; controls 0 of 9).
Variant KSSQSNLYESRNKNPVA | WASTRES | TQYHRLPLS gave 3.93 (2 of 3 replicates; controls 3 of 9).
Variant KSSQSVLRESRNKNSVA | WASTCES | QQYHRLPLM gave 3.54 (1 of 3 replicates; controls 4 of 9).
Variant KSSQSHLYESRNKNSVA | WASTRES | QQYHRLTRS gave 4.21 (1 of 3 replicates; controls 1 of 9).
Variant KSSQGVEYESRNKNSVA | WASTRES | QQYHYLPLS gave 0.99 (3 of 3 replicates; controls 2 of 9).
Variant KSSQSVLDESRNKNSVH | WASTRTS | QQYHRLPLS gave nd (0 of 3 replicates; controls 0 of 9).
Variant KSSQSVLAESRNKNSVA | WASTRES | QYYHQLPLS gave nd (0 of 3 replicates; controls 0 of 9).
Variant KSSQAVLKESRNKNSVA | WASTRES | QQYHRLPLS gave 2.01 (3 of 3 replicates; controls 4 of 9).
Variant KSSQSVLYESRNKNSVA | WASTPLS | QPYHRLPLS gave 3.27 (3 of 3 replicates; controls 2 of 9).
Variant KSSQSVLYESRNKNSVA | WASTRES | IQYHRLPAS gave nd (0 of 3 replicates; controls 3 of 9).
Variant KSSQSVLRESRNKNSVA | WASTREE | QDYHRLPLS gave 1.27 (3 of 3 replicates; controls 1 of 9).
Variant KSTQSVLYESRNKNSVA | WASTREH | QQYARLPLS gave 1.47 (3 of 3 replicates; controls 1 of 9).
Variant KSSSSQLYESRNKNSWA | WASTRES | QQYHRLPLS gave 4.66 (1 of 3 replicates; controls 1 of 9).
Variant KSSQSVLYESRNKRSVA | WASTRRS | QQYHRQPLS gave 3.33 (1 of 3 replicates; controls 1 of 9).
Variant KSSQSVSYESGNKNSVA | WASTRES | QQYSRLPLS gave 0.74 (3 of 3 replicates; controls 2 of 9).
Variant ASNQSVDYESRNKNSVA | WASTRES | QQYHRLPLS gave 0.70 (3 of 3 replicates; controls 0 of 9).
Variant KSSQSVLTESRNKNSVA | WASTRQS | QQYHRLHLS gave nd (0 of 3 replicates; controls 1 of 9).
Variant KSSQSVLYESRNKNFVA | WASTWES | QQYHRLPQS gave nd (0 of 3 replicates; controls 3 of 9).
Variant KSSQSVLYESRNKVSVA | WASMRES | QQLHRLPLS gave 4.14 (1 of 3 replicates; controls 3 of 9).
Variant KSSQSVLYESWNKNSVA | WASTREA | QQYHRLPLS gave 0.92 (3 of 3 replicates; controls 2 of 9).
Variant KSSQSVLYESLNKNSVA | WCSTRES | AQYHRLPLS gave nd (0 of 3 replicates; controls 3 of 9).
Variant MSSQSVLYESENKNSVA | WASTRGS | QQYHRLPLS gave 0.92 (3 of 3 replicates; controls 3 of 9).
Variant KSSQSVLYESRMKNSSA | WASTREG | QQYHRLPLS gave 2.76 (1 of 3 replicates; controls 0 of 9).
Variant KSSQSVLYESRWKNSVA | WASTRES | QVYHRLYLS gave nd (0 of 3 replicates; controls 0 of 9).
Variant KPSQSVLYESRNKNSVA | WASTRES | GQYHRLPLS gave 2.66 (3 of 3 replicates; controls 0 of 9).
Variant KSSQSVLYESRNKNSVA | WASTNES | QQRHRLPLS gave 3.52 (1 of 3 replicates; controls 2 of 9).
Variant KSAQSVLYESRNKNMVA | WASTRES | QQYHRLPLS gave 2.92 (2 of 3 replicates; controls 2 of 9).
Variant KSWQSVLMESRNKNSVA | WVSTRES | QQYHRLPLS gave 4.12 (1 of 3 replicates; controls 2 of 9).
Variant KSSQSVLYHSRNKNSVA | WASPRWS | QQYHRLPLS gave 3.84 (2 of 3 replicates; controls 2 of 9).
Variant KSSQSVLAESRNKNSFA | WASTRCS | QQYHRLPLS gave nd (0 of 3 replicates; controls 0 of 9).
Variant KSSQIVLYESNNKNSVA | WASTRES | QQYHRLPKS gave 1.92 (3 of 3 replicates; controls 6 of 9).
Variant KSSQSPLYESRNKNSVA | RASTRES | QQYHRLPLI gave 0.77 (3 of 3 replicates; controls 3 of 9).
Variant KSSQKVLYESRNKNSVA | WASVRES | QQYHSLPLS gave 1.06 (3 of 3 replicates; controls 2 of 9).
Variant KSSQSVLYESENKNSVA | WASTRES | YQYHRLPLS gave 2.30 (3 of 3 replicates; controls 3 of 9).
Variant TSSQSVLYESRNKNSVA | WAGTRES | QYYHRLPLS gave 3.97 (1 of 3 replicates; controls 2 of 9).
Variant KSQQSVLYESRNLNWVA | WASTRES | QQYHRLPLS gave nd (0 of 3 replicates; controls 1 of 9).
Variant PKSQSVLYESRNKNSVA | WASTRCS | QQYHRLPLS gave nd (0 of 3 replicates; controls 0 of 9).
Variant KSSQSVQVESRNKNSVA | WASTRES | QQYHRGPLS gave 0.90 (3 of 3 replicates; controls 4 of 9).
Variant KSSQSVLYESRNKNSSA | WASTRES | EQYHRLPMS gave nd (0 of 3 replicates; controls 0 of 9).
Variant TSSQSVLYESRNKNSVR | WASTRES | QQGHRLPLS gave 4.45 (2 of 3 replicates; controls 4 of 9).
Variant KSSQSVLYESRNDNSVA | WASTNES | QQYHRLPLS gave nd (0 of 3 replicates; controls 1 of 9).
Variant KSSFSVLYESRHKNSVA | WASWRES | QQYHRLPLS gave 3.06 (1 of 3 replicates; controls 0 of 9).
Variant KSSQSVLYESRNKNSQA | WASTRDS | QQYHRYPLS gave nd (0 of 3 replicates; controls 4 of 9).
Variant KSSQSVLVESRNKNSVA | WASTREP | QQYHRLPLK gave 1.80 (3 of 3 replicates; controls 0 of 9).
Variant KSSLSVLYESRNKNSVA | WAITRES | QWYHRLPLS gave 3.81 (1 of 3 replicates; controls 2 of 9).
Variant KSSQSVLYESRNPNSMA | WASTRES | QQYHRLPLS gave 2.27 (3 of 3 replicates; controls 0 of 9).

Excerpt, the final 8 entries:

CDR-L1	CDR-L2	CDR-L3	log10 Kd (nM), mean	seen in	empty controls
KSSQSVLYESRNKNSSA	WASTRES	EQYHRLPMS	nd	0/3	0/9
TSSQSVLYESRNKNSVR	WASTRES	QQGHRLPLS	4.45	2/3	4/9
KSSQSVLYESRNDNSVA	WASTNES	QQYHRLPLS	nd	0/3	1/9
KSSFSVLYESRHKNSVA	WASWRES	QQYHRLPLS	3.06	1/3	0/9
KSSQSVLYESRNKNSQA	WASTRDS	QQYHRYPLS	nd	0/3	4/9
KSSQSVLVESRNKNSVA	WASTREP	QQYHRLPLK	1.80	3/3	0/9
KSSLSVLYESRNKNSVA	WAITRES	QWYHRLPLS	3.81	1/3	2/9
KSSQSVLYESRNPNSMA	WASTRES	QQYHRLPLS	2.27	3/3	0/9

From the AlphaSeq antibody data of Engelhart et al. 2022 (doi:10.1038/s41597-022-01779-4), copy in the FLAb collection.